Tested on: Kunming mice
Conditions: administering dosage 16678, intravenous, 10 mice
Protocol: The mice were provided by Medical school of Tongji University and with a batch No. 19-052.
Commonly, the lethality of the mice was regarded as positive index. After the death mice of each group were recorded and calculated and a LD50 value was calculated according to the Bliss statistical method.

C[C@H]1[C@H](C)CC[C@]2(C(=O)O)CC[C@]3(C)C(=CC[C@@H]4[C@@]5(C)CC[C@H](O)C(C)(C)[C@@H]5CC[C@]43C)[C@H]12 [Ursolic Acid for Injection, ursolic acid]
Probability unit (y): 8.09

From patent US8287889B2 (Wuhan Liyuanheng Pharmaceutical Technology Ltd., priority 2002, dated 2012)
